## AlphaSeq binding of Ab-14 light chain variants to a spike HR2 peptide

Reference: Li et al. 2023, doi:10.1038/s41467-023-39022-2. File: FLAb, binding data.

Binding partner: SARS-CoV-2 spike HR2 peptide, sequence PDVDLGDISGINAS.

Parent: Ab-14, a human scFv built as VH, the linker GGGGSGGGGSGGGGS, VL. Only the CDRs of the light chain vary.
VH: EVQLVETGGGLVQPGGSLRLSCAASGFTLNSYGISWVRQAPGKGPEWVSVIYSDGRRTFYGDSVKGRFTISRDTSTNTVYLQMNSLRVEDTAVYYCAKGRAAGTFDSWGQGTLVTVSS
VL: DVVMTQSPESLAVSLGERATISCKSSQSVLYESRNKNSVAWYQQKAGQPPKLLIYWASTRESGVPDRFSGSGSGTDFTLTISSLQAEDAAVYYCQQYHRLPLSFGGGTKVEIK

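Phage display of a naive human antibody library on the peptide gave the parent. Designed CDR sequences, proposed from the first random library and measured here. Several design methods are mixed in this list. In AlphaSeq, yeast of one mating type display the scFv and yeast of the other type display the target. Pairs that bind mate more often; barcode pairs of the diploids are counted by sequencing. Each replicate has its own calibration line, from reference interactions of the BCL2 family. Mating was done six times.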

The parent's light chain CDRs are KSSQSVLYESRNKNSVA, WASTRES, QQYHRLPLS; each variant's own CDRs replace them letter for letter.
Variants here have more than six changes.
Values are log10 of the apparent Kd in nM; lower means stronger binding.
Averages over replicates are reported, and they cover detected replicates only.
"no signal" marks a missing value. The strain was present, yet no cells mated with the target were sequenced in any replicate, which points to weak or no binding.
The list is sorted by this average, lowest first, undetected variants last.
Values of this round are not directly comparable with the first-round values of the same sequences.
In the paper, a design with two or fewer of six values counts as a poor binder.
Three control strains display no target. For all light chain designs, 4% of the pairings with them gave a signal, with a median of 2.64 and one signal in twenty below 1.59, so weak values seen in few replicates may be background. For each scFv, signals with the empty controls are counted beside the result.
The parent sequence was in this pool as ten entries: three were never detected, three once, and four in most replicates, with averages from 0.34 to 2.37.

CDR-L1,CDR-L2,CDR-L3,mean log10 Kd (nM),detected,signal with controls
KIGMTLNQLMQKKNNVA,DLVTREE,QQYHRLPLS,-0.53,6 of 6,0 of 18
KLGDMVHTESRNKNSIA,DMRTRES,QQYNRLPLS,-0.37,6 of 6,2 of 18
KLVQQHLYESRNKNNVA,EASTREQ,QQYHRLPLS,-0.23,6 of 6,1 of 18
KLMQSMWYESRNKNSVA,HASEREQ,QQYHRLPLQ,-0.19,6 of 6,2 of 18
KLMYSWPGESRNKNSVA,DASTRES,QQYHRLPLS,-0.06,6 of 6,0 of 18
KVSQSHLYEERNDNNVA,QASYRES,QQYHRLPLS,-0.05,6 of 6,0 of 18
HVFMELAMEKNSYRNIA,DASMRLA,QQYVRLPLG,-0.02,6 of 6,1 of 18
KHEEWVEYESRNKNSVA,HASTRLS,QQYHRLPLS,0.09,6 of 6,0 of 18
KLDPSDLGESRNKNSVA,QASQREI,QQYHRLPLS,0.09,6 of 6,1 of 18
KLSTVTEYESRNKNNVA,DLTTRGS,QDYHRLPLS,0.10,6 of 6,0 of 18
TLLYGVTEAAKPGKAIA,GNEERAQ,QQYFRLPLS,0.12,6 of 6,0 of 18
TISPSFMVESRLKNSVA,QTSTRES,QQYDRLPLS,0.14,6 of 6,0 of 18
GIHSQMVGTSAVKENIA,NEAERLE,QQYQRLPLT,0.15,6 of 6,0 of 18
HVSSMDMHDGGIMHSVA,DTKITER,QQYMRLPLS,0.22,6 of 6,1 of 18
QLAVNRLMEYTMGDAIA,GKTLRVD,QQYARLPLS,0.28,6 of 6,1 of 18
QLNHYKHETMAKTQNIA,DMTIRED,QQYAHLPLA,0.31,6 of 6,0 of 18
KAAQSWGYESRNKWSVA,NASTREK,QQYHRLPLS,0.34,6 of 6,1 of 18
ALSGSHLYESRMKNSVA,NASTREE,QQYHRLPLS,0.35,6 of 6,1 of 18
KVSDSMAFLSRNRNSVA,DNSTRGS,QQYHRLPLS,0.35,6 of 6,3 of 18
KLSQGDWYQSRMDNSVA,NASTRES,QQYHRLPLS,0.38,6 of 6,4 of 18
IVSQLMIWGMHAKNSIA,EAQTRLN,QQYDRLPLF,0.38,6 of 6,1 of 18
KIHQSVLYEDRNINSVA,NASQRYS,QAYHRLPLS,0.39,6 of 6,1 of 18
VISQSFLIGMKAKNSVA,QTNTREE,QQYDRLPLI,0.48,6 of 6,3 of 18
MISDLMLYGSRAKNPIA,NASTREY,QQYHRLPLE,0.52,6 of 6,0 of 18
KISQMVRVGSTHSSSIA,EEETRAK,QQYHRLPLS,0.56,6 of 6,0 of 18
IITQVDAYESRNKNSIA,DQSTRGS,QQYDRLPLS,0.67,6 of 6,1 of 18
HLSDTVMQGMYYRNSVA,QESTRAD,QQYHHLPLS,0.68,6 of 6,0 of 18
TLMHHQDYQGEIKKSIA,NAIIKEE,QQYSRLPLA,0.70,6 of 6,0 of 18
KIGHTLNTLYEKANNVA,DLVTREN,QQYYRLPLS,0.74,6 of 6,1 of 18
HISMITLQGMRARNSVA,QMTTREN,QQYDRLPLS,0.74,6 of 6,0 of 18
KLQWSTLYMSRNCNSVA,DASQRES,QQYHRLPLS,0.75,6 of 6,0 of 18
SLFFHDDQKQEESNNIA,HASLRAV,QQYMHLPLV,0.75,6 of 6,2 of 18
KITATMRFEQKASNNIA,EVTQRSK,QQYYRLPLS,0.79,6 of 6,0 of 18
MIAQMLGWEQNKINSVA,QANLRTE,QQYDRLPLE,0.80,6 of 6,1 of 18
QLSMITGHMSVSKNNVA,EMETREE,QQYDRLPLS,0.82,6 of 6,0 of 18
MISQVMNSLTHTGNNVA,DLQEREE,QQYFRLPLS,0.82,6 of 6,1 of 18
SLTAHVEEAKGAENSVA,QAVMLES,QQYHQLPLM,0.83,6 of 6,4 of 18
KIGMVLNQHLHQKNNVA,DLVERVN,QQYHRLPLS,0.83,6 of 6,3 of 18
KISGLVNFFGHAINSVA,EMETREK,QQYDRLPLS,0.84,6 of 6,1 of 18
KIGHGVTGTMRKGNSVA,QAETRLD,QQYHRLPLS,0.95,6 of 6,2 of 18
MIAQGMRGVGRNKNSVA,NAQTRES,QHYHRLPLS,0.95,6 of 6,1 of 18
KLSQVTHSESRNKNSIA,EMVTRED,QQYDRLPLS,0.96,6 of 6,1 of 18
TISQSMNMTSHGRNSVA,QAEMRES,QQYDRLPLS,1.11,6 of 6,1 of 18
KIATMGEHFSTNHSAIA,QASTREQ,QQYHRLPIS,1.12,6 of 6,0 of 18
ILNLTPMEHQIHMDAVA,QEAIRNA,QQYARLPLS,1.14,6 of 6,0 of 18
KLSLSVLLESRNVNAVA,EASTRES,QDYHRLPLS,1.15,6 of 6,2 of 18
NISIEDVSEHNDANNVA,STDCRCD,QQYFMLPLM,1.15,6 of 6,1 of 18
HITYGMQVAGRHSKSIA,QAETRAK,QQYDRLPLI,1.32,6 of 6,1 of 18
KVSEFMRGLMMRKDSIA,DNNTRSN,QQYDRLPLS,1.43,6 of 6,0 of 18
KVSPSQLYWSRNKNQVA,QANTRET,QQYHRLPLS,1.44,6 of 6,2 of 18
MISQVMNTLTREGNNVA,DLTNREK,QQYFRLPLS,1.45,6 of 6,1 of 18
KLSQLTGHMKMVKNNVA,EMETREN,QQYDRLPLS,1.53,6 of 6,1 of 18
SIQFYTENDAEWGDSIA,DVSATTA,QQYHRLPLA,1.56,6 of 6,0 of 18
TLYGLTNSMSKNKNNVA,EMSTREA,QQYDRLPLI,1.61,6 of 6,0 of 18
MISQLWNMGSFAINSVA,QASLRNE,QQYDRLPLT,1.69,3 of 6,1 of 18
NISIEDVSEHNFANNVA,STDCRCS,QQYFHLPLD,1.94,6 of 6,3 of 18
KLQGSHLYGSRNKNSVA,HASQRES,QCYHRLPLS,1.95,6 of 6,1 of 18
RITEQYFEHMGNCNNVA,EAECKQY,QQYAHLPLL,2.05,5 of 6,0 of 18
HLHTVNYTEAIGTNSIA,DANLHVT,QQYFRLPIM,2.07,6 of 6,0 of 18
MISDLMLQGSRNKNPIA,NASTREY,QQYHRLPLE,2.13,4 of 6,0 of 18
KLSMSMLMESRKKNSVA,ENSTRES,QHYHRLPLS,2.14,6 of 6,2 of 18
KLSGVMASSKFAKDNVA,ENNTRED,QQYDRLPLS,2.44,4 of 6,1 of 18
NVHALMNHSSDFMQSIA,DEECRDA,QQYERLPLS,2.58,6 of 6,1 of 18
SLSHMSEGSKNEEASIA,STELGMA,QQYARLPLA,no signal,0 of 6,0 of 18
NIYQAMHTLSQMKDNVA,DVNERGN,QQYFRLPLS,no signal,0 of 6,0 of 18
RLLDWAYGWTAKERNIA,DEDIRGA,QQYSHLPLA,no signal,0 of 6,0 of 18

The first 7 entries again:

CDR-L1,CDR-L2,CDR-L3,mean log10 Kd (nM),detected,signal with controls
KIGMTLNQLMQKKNNVA,DLVTREE,QQYHRLPLS,-0.53,6 of 6,0 of 18
KLGDMVHTESRNKNSIA,DMRTRES,QQYNRLPLS,-0.37,6 of 6,2 of 18
KLVQQHLYESRNKNNVA,EASTREQ,QQYHRLPLS,-0.23,6 of 6,1 of 18
KLMQSMWYESRNKNSVA,HASEREQ,QQYHRLPLQ,-0.19,6 of 6,2 of 18
KLMYSWPGESRNKNSVA,DASTRES,QQYHRLPLS,-0.06,6 of 6,0 of 18
KVSQSHLYEERNDNNVA,QASYRES,QQYHRLPLS,-0.05,6 of 6,0 of 18
HVFMELAMEKNSYRNIA,DASMRLA,QQYVRLPLG,-0.02,6 of 6,1 of 18